Results: patent US20250122223A1, “HETEROCYCLIC COMPOUNDS AS UBIQUITIN SPECIFIC PROTEASE 7 INHIBITORS” (ALMAC DISCOVERY LIMITED, priority 2022, published 2025)

Chains of the proteins cited; added tags and fusions are not shown.
UniProt Q93009, whole entry: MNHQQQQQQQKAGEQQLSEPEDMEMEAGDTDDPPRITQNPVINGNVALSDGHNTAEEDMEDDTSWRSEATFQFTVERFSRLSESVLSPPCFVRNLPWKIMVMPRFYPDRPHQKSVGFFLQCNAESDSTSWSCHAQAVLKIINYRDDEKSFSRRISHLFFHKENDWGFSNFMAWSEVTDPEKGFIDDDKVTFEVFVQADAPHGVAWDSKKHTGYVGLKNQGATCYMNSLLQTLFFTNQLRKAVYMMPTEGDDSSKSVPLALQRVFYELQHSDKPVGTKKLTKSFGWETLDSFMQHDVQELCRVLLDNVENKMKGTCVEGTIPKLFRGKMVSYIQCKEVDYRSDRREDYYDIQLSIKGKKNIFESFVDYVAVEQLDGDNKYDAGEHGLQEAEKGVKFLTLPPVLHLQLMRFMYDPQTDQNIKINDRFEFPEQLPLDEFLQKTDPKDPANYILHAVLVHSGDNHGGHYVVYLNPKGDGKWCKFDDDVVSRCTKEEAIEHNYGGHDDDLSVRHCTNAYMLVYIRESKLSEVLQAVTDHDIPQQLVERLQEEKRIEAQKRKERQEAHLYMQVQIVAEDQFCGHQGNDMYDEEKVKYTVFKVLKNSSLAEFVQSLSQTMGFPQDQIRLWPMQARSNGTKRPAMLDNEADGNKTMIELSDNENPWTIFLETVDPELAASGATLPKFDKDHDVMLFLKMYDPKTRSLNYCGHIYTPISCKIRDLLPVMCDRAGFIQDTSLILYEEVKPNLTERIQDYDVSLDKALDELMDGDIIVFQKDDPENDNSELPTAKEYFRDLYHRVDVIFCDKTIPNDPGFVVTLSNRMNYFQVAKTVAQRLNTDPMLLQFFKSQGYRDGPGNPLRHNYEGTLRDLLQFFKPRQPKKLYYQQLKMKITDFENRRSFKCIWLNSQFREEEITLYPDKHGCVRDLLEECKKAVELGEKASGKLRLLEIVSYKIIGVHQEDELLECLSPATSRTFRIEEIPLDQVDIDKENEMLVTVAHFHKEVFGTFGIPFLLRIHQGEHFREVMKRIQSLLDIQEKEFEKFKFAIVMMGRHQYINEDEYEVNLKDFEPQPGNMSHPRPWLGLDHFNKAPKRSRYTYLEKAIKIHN

Assays:
[1] = molecular target: T1, USP7 (Homo sapiens (Human), UniProt Q93009); experiment: USP7 fluorescence polarisation (FP) assay with ubiquitin-Lys-TAMRA substrate
[2] = molecular target: T1, USP7; experiment: Target engagement assay-HTRF, competition with HA-Ub-VPS probe in HEK293 cells stably expressing Flag-tagged USP7; details: read-out: Cellular target engagement: HEK293 Stable clone M6C5 USP7 IC50; HEK293 stable clone M6C5, 2 h treatment
Procedure: HEK293 cells stably expressing Flag-tagged USP7 were treated with vehicle (DMSO) or compound (using 50 μM starting concentration and 11 dp using 1:3 serial dilution) for 2 h and subsequently lysed on ice and homogenised. Cell lysate and HA-Ub-VPS probe was then added to a white flat bottomed 384 well plate (Greiner) to a total volume of 10 μL and incubated for 40 min. 10 μL of D2 and Tb detection antibodies were subsequently added to give a final assay volume of 20 μL. Following incubation, HTRF were measured using a Pherastar FSX (BMG Labtech) exciting at 337 nm and measuring the emission at 620/665 nm. The HTRF ratiometric signal was derived and subsequently normalised to the lysate only controls. Data were plotted and fitted, and the concentrations resulting in 50% inhibition (IC50) were calculated using the non-linear regression curve fitting model using GraphPad Prism. IC50 values for the inhibitors of the invention are compiled in Table 1 above and represent the average of at least duplicate experiments.

## CC1(C)CNC(c2ccc(-n3c(Cl)cc4c(=O)n(CC5(O)CCN(C(=O)C6(C)CC6C(F)(F)F)CC5)cnc43)cc2)CO1 (stereo not shown)
[1]; read-out: Biochemical: USP7 IC50, average of at least duplicate experiments
  IC50: 0.053 µM
[1]; read-out: USP7 IC50 activity (Table 3a, classes), biochemical inhibition
  IC50: < 0.1 µM
[1]; read-out: USP7 IC50 activity (Table 3b), biochemical inhibition, unit not given in Table 3b (Table 1 and key of Table 3a use μM)
  IC50: 0.053 µM
[2]
  IC50: 72 nM
